Key:
[1] = system: HepG2 and CHO cell lines versus PfNF54; experiment: Selectivity of parasite versus mammalian cell lines; type: cell-based; conditions: mammalian cell line (CHO/HepG2) CC50 versus PfNF54 IC50; cell line not specified
[2] = system: hepatocellular carcinoma (HepG2) cells; experiment: Cytotoxicity counter-screening (MTT), HepG2; conditions: HepG2 CC50/PfNF54 IC50
Description: (§1) HepG2 and CHO cells were maintained at 37 °C, under a humidified atmosphere of 5% CO2, in DMEM high glucose media (Gibco) supplemented with 10% heat-inactivated FBS and 1% (v/v) Penicillin-Streptomycin antibiotics. […] The supernatant was discarded, and the cell pellet was resuspended in 1 mL DMEM media for cell counting by Trypan Blue. To determine the toxicity, cells were resuspended and seeded at a concentration of 1x10^4 cells/well in a 96-well plate and incubated for 24 h^[9,10]. Cells were treated in duplicate with a 10-fold serial dilution starting at 100 ug/mL of inhibitor in new media. After 48 h incubation, the viable cells were measured using the MTT tetrazolium reduction assay, where sterile 25 µL of a 5 mg/mL MTT was added to each well and incubated for 4 h before the […] formazan crystals were dissolved with 100 µL DMSO (Merck) per well. The absorbance, a measure of intracellular reduction of MTT, was measured at 540 nm (Multiskan GO). Emetine (50 µM) was included as a positive drug control, and the background was subtracted from all data before being normalised to the untreated^[9,10].

[3] = system: Chinese Hamster Ovary (CHO) cells; experiment: Cytotoxicity counter-screening (MTT), CHO; conditions: CHO CC50/PfNF54 IC50
Description: as §1

[4] = system: unsynchronized PfNF54; experiment: IC50 speed of kill assay; type: cell-based, Plasmodium falciparum; conditions: 24, 48, 72, 96 h incubation
Description: To determine the stage specificity during asexual intra-erythrocytic development, P. falciparum NF54 parasites were synchronised using 5% D-Sorbitol to obtain a >90% ring-stage population (6–10 h post-invasion, hpi). […] The rate of activity and stage-specificity was monitored morphologically using Giemsa-stained thin smears. Asexual intra-erythrocytic stage parasites were treated at ring, early/late trophozoite, and schizont stages, sampling every 12 h over a 48-hour period. Images were captured using a Nikon Eclipse 50i light microscope adapted with a Nikon camera (Nikon DS-Fi1) and NIS-Elements software. […] Parasite progression was monitored every 12 h over a 48-h period using flow cytometry, as described in^[11]. The IC50 speed assay was conducted as described in^[12]. Briefly, unsynchronised P. falciparum NF54 asexual proliferation was determined using a SYBR Green I proliferation-based assay and expressed as IC50 values as described earlier. Four incubation times were employed for each inhibitor: 96 (standard assay time), 72, 48 and 24 h. IC50 values were obtained from corrected dose-response curves using Graph-Pad Prism v10.5.

CCN(CCO)CCCOc1ccc2c(Nc3cc(CC(=O)Nc4cccc(F)c4)n[nH]3)ncnc2c1 [AZD-1152, AZD-1152-HQPA]
selectivity index (SI) towards the parasite [1]: > 100 | Selectivity index (SI) HepG2 [2]: 34.41

COc1cc(N2CCC(N3CCN(C)CC3)CC2)ccc1Nc1ncc(Cl)c(Nc2ccccc2S(=O)(=O)C(C)C)n1 [TAE684, NVP-TAE684]
Selectivity index (SI) CHO [3]: 7.21 | Selectivity index (SI) HepG2 [2]: 31.5 | kill kinetics (IC50 shift over time) [4]: significant IC50 shift after 48 h

CCN1CCN(C(=O)Cc2ccc(Nc3ncc(F)c(Nc4ccc(C(=O)Nc5ccccc5Cl)cc4)n3)cc2)CC1 [AAi I, Aurora A Inhibitor I]
Selectivity index (SI) CHO [3]: 7.48 | selectivity index (SI) towards the parasite [1]: < 10 | Selectivity index (SI) HepG2 [2]: 10.71

O=C(Nc1cccc(Nc2nccc(Nc3cccc(C(F)(F)F)c3)n2)c1)C1CC1 [Aki III, Aurora kinase inhibitor III]
Selectivity index (SI) CHO [3]: 2.90 | selectivity index (SI) towards the parasite [1]: < 10 | Selectivity index (SI) HepG2 [2]: 22.49

Reference: publication PMC12707362, “Targeting Aurora Kinases as Essential Cell‐Cycle Regulators to Deliver Multi‐Stage Antimalarials Against Plasmodium Falciparum” (Angewandte Chemie (International Ed. in English), 2025)
